Among the data in ChEMBL document CHEMBL5512651, “Synthesis and biological evaluation of 4-imidazolidinone-containing compounds as potent inhibitors of the MDM2/p53 interaction” (Eur J Med Chem, 2024) are IC50 and Activity values, retold here.

Protein sequences, listed by entry. Tags and fused reporters are not part of them.
UniProt P04637, whole entry, looked up: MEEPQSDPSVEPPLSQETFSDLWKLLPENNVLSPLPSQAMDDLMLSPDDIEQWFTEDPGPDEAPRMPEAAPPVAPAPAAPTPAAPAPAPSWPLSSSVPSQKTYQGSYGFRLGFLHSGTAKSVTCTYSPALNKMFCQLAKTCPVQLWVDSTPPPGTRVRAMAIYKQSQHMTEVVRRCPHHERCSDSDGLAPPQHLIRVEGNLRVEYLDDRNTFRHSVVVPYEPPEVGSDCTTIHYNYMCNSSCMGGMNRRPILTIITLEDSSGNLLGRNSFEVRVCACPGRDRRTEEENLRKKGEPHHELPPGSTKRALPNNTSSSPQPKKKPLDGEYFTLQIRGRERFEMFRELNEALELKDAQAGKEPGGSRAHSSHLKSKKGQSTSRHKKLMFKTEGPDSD

pIC50: −log10 of the molar value. The source made the active and inactive calls. No cut-off for these calls is given here.

By pIC50 is commonly meant the negative decadic logarithm of the IC50, by convention in mol/L. Lower therefore signals a high IC50.

One test relates to MSTO-211H. Put plainly: cells. The following applies: Homo sapiens, 96 h.
In test [1] the target is Cellular tumor antigen p53 (Homo sapiens) (UniProt P04637). In kind it is cell-based. The following applies: MSTO-211H, filed as activator, dose 1.0 µM, time 24.0 hrs.
The target is the same in test [2]. In kind it is cell-based. The following applies: MSTO-211H, filed as activator, dose 1.0 µM, time 24.0 hrs. The source holds these as a separate data set.
Test [3] shares this target. In kind it is cell-based. The following applies: MSTO-211H, filed as activator, dose 1.0 µM, time 24.0 hrs. This is another data set of the same source.

`CCC(C)(C)C[C@@H]1N2CN(c3ccc(C(=O)O)cc3OC)C(=O)[C@H]2[C@H](c2cccc(Cl)c2)[C@]12CNc1cc(Cl)ccc12`: the negative logarithm of the IC50 (pIC50) in the test on MSTO-211H is 7.16. Same read-out and setting: as for `COc1cc(NC(=O)[C@@H]2N[C@@H](CC(C)(C)C)[C@](C#N)(c3ccc(Cl)cc3F)[C@H]2c2cccc(Cl)c2F)ccc1C(=O)O`, the figure is 7.35. As to `COc1cc(C(=O)O)ccc1N1CN2[C@@H](CC(C)(C)C)[C@@]3(CNc4cc(Cl)ccc43)[C@@H](c3cccc(Cl)c3)[C@@H]2C1=O`, the result in test [1], in test [2] and in test [3] was Active. Besides, the pIC50 in the test on MSTO-211H was 7.13.

The compound `COc1ccc(C2=N[C@@H](c3ccc(Cl)cc3)[C@@H](c3ccc(Cl)cc3)N2C(=O)N2CCNC(=O)C2)c(OC(C)C)c1` [NUTLIN-3] had a negative-log IC50 (pIC50) in the test with MSTO-211H of 5.99.
